Data as given in patent EP4821509A1, “USE OF QUINAZOLINE COMPOUND AND THIRD-GENERATION EGFR INHIBITOR IN COMBINED DRUG FOR TREATING NON-SMALL CELL LUNG CANCER” (dated 2026).

Assays:
BaF3 EGFR Del19 cells = assay: Pharmacodynamics in subcutaneous mouse xenograft model of BaF3 EGFR Del19 tumor cells; conditions: for inhibition of tumor growth compared with control group: 18 days after administration, single agents, oral, result in words
BaF3 EGFR L858R cells = assay: Pharmacodynamics in subcutaneous mouse xenograft model of BaF3 EGFR L858R tumor cells; conditions: for inhibition of tumor growth compared with control group: single agents, oral, result in words
[1] = day 18 after administration, gavage, osimertinib 5 mg/kg once a day, quinazoline derivative (I) 10 mg/kg twice a day, alone or combined
[2] = day 21 after administration, gavage, osimertinib 5 mg/kg once a day, quinazoline derivative (I) 10 mg/kg twice a day, alone or combined

| Structure (SMILES) | inhibition of tumor growth compared with control group (BaF3 EGFR Del19 cells) | Relative tumor proliferation rate T/C (%) (BaF3 EGFR Del19 cells; [1]) | TGI (%) (BaF3 EGFR Del19 cells; [1]) | Tumor volume (mm^3) (day 18 after administration) (BaF3 EGFR Del19 cells; [1]) | Tumor volume (mm^3) (day 35 after administration ) (BaF3 EGFR Del19 cells; day 35 after administration, gavage, osimertinib 5 mg/kg once a day, quinazoline derivative (I) 10 mg/kg twice a day, alone or combined) | T/C (%) (BaF3 EGFR L858R cells; [2]) | TGI (%) (BaF3 EGFR L858R cells; [2]) | Tumor volume (mm^3) (day 21 after administration) (BaF3 EGFR L858R cells; [2]) | Tumor volume (mm^3) (day 60 after administration) (BaF3 EGFR L858R cells; day 60 after administration, gavage, osimertinib 5 mg/kg once a day, quinazoline derivative (I) 10 mg/kg twice a day, alone or combined) | inhibition of tumor growth compared with control group (BaF3 EGFR L858R cells) |
| --- | --- | --- | --- | --- | --- | --- | --- | --- | --- | --- |
| C#Cc1cccc(Nc2ncnc3cc(OC)c(O[C@@H]4CCN(C)CC4(F)F)cc23)c1F | good inhibition of tumor growth | 0.6% | 102.8% | 24±7 mm^3 | 260±44 mm^3 | 2.1% | 104.0% | 46±13 mm^3 | 974±365 mm^3 | good inhibition of tumor growth |
| C=CC(=O)Nc1cc(Nc2nccc(-c3cn(C)c4ccccc34)n2)c(OC)cc1N(C)CCN(C)C | good inhibition of tumor growth |  |  |  |  | 1.3% |  |  |  | good inhibition of tumor growth |
